{"sequences": {"note": "The chains behind the UniProt entries cited, without tags or fusion partners.", "UniProt P62942, whole entry, species assumed": "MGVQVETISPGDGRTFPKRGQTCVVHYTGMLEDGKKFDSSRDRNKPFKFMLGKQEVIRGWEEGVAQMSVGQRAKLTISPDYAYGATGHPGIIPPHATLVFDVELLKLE"}, "source": "patent US6335348B1", "about": "“Nitrogen-containing linear and azepinyl/ compositions and uses for vision and memory disorders” (GPI NIL Holdings, Inc., priority 1998, dated 2002)"}
{"target": "FKBP12 (Homo sapiens, UniProt P62942)", "test": "Ki test procedure: inhibition of peptidyl-prolyl isomerase (rotamase) activity, chymotrypsin-coupled assay", "assay_type": "biochemical", "conditions": "apparent Ki, Table C", "from_the_text": "The inhibition of the prolyl peptidyl cis-trans isomerase activity of FKBP may be measured as an indicator of this affinity. Inhibition of the peptidyl-prolyl isomerase (rotamase) activity of the compounds used in the inventive methods and pharmaceutical compositions can be evaluated by known methods described in the literature (Harding et al., Nature, 1989, 341:758-760; Holt et al. J. Am. Chem. Soc., 115:9923-9938). […] The cis-trans isomerization of an alanine-proline bond in a model substrate, N-succinyl-[…]-nitroanilide, is monitored spectrophotometrically in a chymotrypsin-coupled assay, which releases para-nitroanilide from the trans form of the substrate. The inhibition of this reaction caused by the addition of different concentrations of inhibitor is determined, and the data is analyzed as a change in first-order rate constant as a function of inhibitor concentration to yield the apparent Ki values. […] The reaction is initiated by the addition of […] of substrate (succinyl-[…]-nitroanilide, 5 mg/mL in 2.35 mM LiCl in trifluoroethanol). The absorbance at 390 nm versus time is monitored for 90 seconds using a spectrophotometer and the rate constants are determined from the absorbance versus time data files.", "units": {"Ki": "nM"}}
{"smiles": "COc1cc(C(=O)C(=O)N2CCCCC2C(=O)OCc2cccc(Oc3ccccc3)c2)cc(OC)c1OC", "note": "(stereo not drawn) [Compound 22]", "Ki": 18}
{"smiles": "COc1cc(C(=O)C(=O)N2CCCCC2C(=O)OCCCCC2CCCCC2)cc(OC)c1OC", "note": "(stereo not drawn) [Compound 21]", "Ki": 40}
{"smiles": "COC(=O)C(=O)N1CCCCC1C(=O)OCCCCC1CCCCC1", "note": "(stereo not drawn) [Compound 17]", "Ki": 6000}
